Data reported in PubChem BioAssay AID1117267 (The Scripps Research Institute Molecular Screening Center, 2014).
Only a part is listed here, and it is no random draw. Calls of active or inactive are those of the source.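 How the source made its calls: active means activation above the mean of all tested compounds plus 3 SD (cut at about 9.5% in these data); inactive means the rest.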

Test: TTR transcription activators in neuroblastoma reporter cells, primary screen, cell-based, luminescence, SH-SY5Y, TTR promoter Gaussia luciferase (AID 1117267);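 further: cells exposed to compounds for one day before reading; 0% = median of all test compound wells on the plate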
Conditions: at 16.7 µM, hits give high values, 100% = recombinant luciferase protein wells

Q: Which activation does the source give for CCC(=O)N(c1ccccc1)C1(COC)CCN(CCc2cccs2)CC1 here?
A: inactive: 0.6%

Q: Which activation does the source give for CCC(=O)N(c1ccccc1)C1(COC)CCN(CCn2nnn(CC)c2=O)CC1 here?
A: inactive: 2.37%
